One compound from patent US20250155433A1, “FLUORESCENT SENSORS FOR DETECTION OF SIDEROPHORES AND OTHER MOLECULES PRODUCED BY BACTERIAL PATHOGENS” (Kansas State University Research Foundation, priority 2021, published 2025) can be followed below.

By UniProt entry, the sequences of proteins in these tests, tags left out. Where a name states a change or a piece, a line headed by the entry shows the natural chain unless it says otherwise.
UniProt D0C8V9: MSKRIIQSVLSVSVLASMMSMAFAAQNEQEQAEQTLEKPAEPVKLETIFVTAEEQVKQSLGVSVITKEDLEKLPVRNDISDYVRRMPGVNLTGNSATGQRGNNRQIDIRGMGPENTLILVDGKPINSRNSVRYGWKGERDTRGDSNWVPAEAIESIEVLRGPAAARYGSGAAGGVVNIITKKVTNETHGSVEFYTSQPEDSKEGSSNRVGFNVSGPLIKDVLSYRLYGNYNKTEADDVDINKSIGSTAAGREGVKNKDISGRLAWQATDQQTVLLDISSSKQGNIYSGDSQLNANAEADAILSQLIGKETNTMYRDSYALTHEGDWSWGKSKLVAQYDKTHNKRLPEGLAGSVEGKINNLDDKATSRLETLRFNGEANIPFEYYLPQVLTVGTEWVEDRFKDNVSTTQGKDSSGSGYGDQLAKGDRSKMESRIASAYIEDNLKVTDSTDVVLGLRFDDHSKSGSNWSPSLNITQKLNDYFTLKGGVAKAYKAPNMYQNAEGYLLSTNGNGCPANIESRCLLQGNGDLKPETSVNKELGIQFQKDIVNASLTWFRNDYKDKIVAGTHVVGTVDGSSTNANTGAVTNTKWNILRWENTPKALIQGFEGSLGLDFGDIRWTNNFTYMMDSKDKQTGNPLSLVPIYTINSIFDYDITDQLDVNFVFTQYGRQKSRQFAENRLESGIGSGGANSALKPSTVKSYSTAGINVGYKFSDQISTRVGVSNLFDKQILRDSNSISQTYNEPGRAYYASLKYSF

For this assay, the target named is T1, AbaPirA (Acinetobacter baumannii, UniProt D0C8V9).
T1 construct: fused on or other part: EcoFepA signal peptide in place of its own (cleaved on export); fluorescein maleimide on the engineered Cys
The format is binding. The settings on record: read-out: Affinity (KD) of sensor AbaPirA, apo siderophore; apo (parenthetic value); S328C.

Take `O=C(N[C@H]1COC(=O)[C@@H](NC(=O)c2cccc(O)c2O)COC(=O)[C@@H](NC(=O)c2cccc(O)c2O)COC1=O)c1cccc(O)c1O` [Ent, enterobactin]: the dissociation constant Kd (as a rule, the concentration at which binding is half-saturated) worked out at 7.3 µM.
